Chains of the proteins cited; added tags and fusions are not shown.
UniProt P22607, whole entry, looked up: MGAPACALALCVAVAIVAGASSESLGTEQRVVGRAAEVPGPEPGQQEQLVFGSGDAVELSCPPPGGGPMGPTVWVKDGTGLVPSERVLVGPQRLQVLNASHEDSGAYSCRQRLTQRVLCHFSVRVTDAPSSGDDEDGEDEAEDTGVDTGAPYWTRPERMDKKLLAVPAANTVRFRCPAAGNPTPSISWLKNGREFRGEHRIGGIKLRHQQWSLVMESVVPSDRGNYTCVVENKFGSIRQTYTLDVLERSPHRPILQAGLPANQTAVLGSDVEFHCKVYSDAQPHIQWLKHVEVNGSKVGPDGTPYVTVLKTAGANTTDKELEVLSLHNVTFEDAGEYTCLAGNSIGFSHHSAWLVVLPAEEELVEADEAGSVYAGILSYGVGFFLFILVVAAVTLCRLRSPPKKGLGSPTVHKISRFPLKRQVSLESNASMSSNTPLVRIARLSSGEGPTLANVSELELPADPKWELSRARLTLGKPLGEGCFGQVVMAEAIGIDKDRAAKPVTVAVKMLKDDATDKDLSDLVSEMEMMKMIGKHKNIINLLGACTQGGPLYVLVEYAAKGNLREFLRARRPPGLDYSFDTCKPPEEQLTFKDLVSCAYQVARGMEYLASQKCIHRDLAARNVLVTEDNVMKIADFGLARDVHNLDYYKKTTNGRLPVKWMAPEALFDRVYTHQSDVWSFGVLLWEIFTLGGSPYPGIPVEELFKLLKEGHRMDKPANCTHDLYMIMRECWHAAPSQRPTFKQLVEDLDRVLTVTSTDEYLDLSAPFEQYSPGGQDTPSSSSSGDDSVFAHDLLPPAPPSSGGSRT
UniProt Q13177, whole entry: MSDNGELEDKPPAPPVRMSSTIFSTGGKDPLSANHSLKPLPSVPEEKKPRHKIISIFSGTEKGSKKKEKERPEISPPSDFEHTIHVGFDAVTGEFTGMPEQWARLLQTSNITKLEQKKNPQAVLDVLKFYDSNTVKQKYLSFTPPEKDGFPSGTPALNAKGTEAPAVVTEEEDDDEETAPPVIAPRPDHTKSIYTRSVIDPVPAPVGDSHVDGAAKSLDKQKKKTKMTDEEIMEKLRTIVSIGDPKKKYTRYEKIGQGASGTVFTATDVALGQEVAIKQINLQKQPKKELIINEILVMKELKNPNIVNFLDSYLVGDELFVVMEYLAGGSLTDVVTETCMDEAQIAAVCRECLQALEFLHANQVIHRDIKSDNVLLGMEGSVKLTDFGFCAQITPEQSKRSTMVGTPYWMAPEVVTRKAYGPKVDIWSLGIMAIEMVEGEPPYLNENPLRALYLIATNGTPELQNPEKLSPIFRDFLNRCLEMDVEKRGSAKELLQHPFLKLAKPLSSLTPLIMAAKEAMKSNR

In ChEMBL document CHEMBL1681705, “Optimisation of ITK inhibitors through successive iterative design cycles” (Bioorg Med Chem Lett, 2011):

What was measured:
[1] = target: T1, Ephrin type-B receptor 3 (Homo sapiens) (UniProt P54753); assay: Inhibition of EphB3 at 0.1 uM; values are per cent of control
T1 sequence (whole entry): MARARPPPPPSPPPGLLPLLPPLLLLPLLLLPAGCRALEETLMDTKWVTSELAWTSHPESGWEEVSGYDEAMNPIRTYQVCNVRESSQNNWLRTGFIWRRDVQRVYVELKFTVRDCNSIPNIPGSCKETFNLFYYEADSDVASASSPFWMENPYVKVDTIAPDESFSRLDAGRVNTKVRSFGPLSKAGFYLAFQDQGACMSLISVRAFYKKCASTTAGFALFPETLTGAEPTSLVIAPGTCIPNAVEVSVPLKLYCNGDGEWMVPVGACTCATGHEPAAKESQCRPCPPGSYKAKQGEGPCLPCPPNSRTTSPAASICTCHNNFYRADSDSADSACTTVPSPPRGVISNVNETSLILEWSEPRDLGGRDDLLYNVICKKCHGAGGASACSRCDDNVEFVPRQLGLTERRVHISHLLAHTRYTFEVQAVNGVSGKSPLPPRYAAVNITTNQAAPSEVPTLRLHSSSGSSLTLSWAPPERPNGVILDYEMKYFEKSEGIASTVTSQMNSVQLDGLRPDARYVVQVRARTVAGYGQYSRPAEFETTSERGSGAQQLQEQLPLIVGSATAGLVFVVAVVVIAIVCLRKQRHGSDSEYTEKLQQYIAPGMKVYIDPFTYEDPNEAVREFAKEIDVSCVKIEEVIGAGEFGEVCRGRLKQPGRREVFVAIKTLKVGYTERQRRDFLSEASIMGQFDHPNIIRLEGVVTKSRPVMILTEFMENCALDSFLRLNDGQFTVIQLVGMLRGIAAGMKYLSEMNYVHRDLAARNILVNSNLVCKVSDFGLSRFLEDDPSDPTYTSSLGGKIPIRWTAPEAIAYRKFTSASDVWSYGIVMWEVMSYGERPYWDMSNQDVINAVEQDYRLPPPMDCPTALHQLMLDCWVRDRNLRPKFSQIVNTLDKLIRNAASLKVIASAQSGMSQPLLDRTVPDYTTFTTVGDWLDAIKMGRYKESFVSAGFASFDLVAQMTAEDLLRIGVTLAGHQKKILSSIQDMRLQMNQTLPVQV

[2] = Inhibition of ROCK1 at 1 uM
[3] = target: Fibroblast growth factor receptor 3 (Homo sapiens) (UniProt P22607); conditions: 0.1 uM
[4] = target: Serine/threonine-protein kinase PAK 2 (Homo sapiens) (UniProt Q13177); assay: Inhibition of PAK2 at 0.1 uM; values are per cent of control

Cc1ccc2cc(-c3n[nH]c4ccc(NC5CCNC5)cc34)[nH]c2c1 (stereo not given) showed a residual activity [1] of 83%, an inhibition [2] of 17% and an inhibition [3] of 17%. For the same compound, the residual activity [4] was 83%.

Work on Cc1ccc2cc(-c3n[nH]c4ccc(NC5CCN(Cc6ccccc6)CC5)cc34)[nH]c2c1 yielded an inhibition [3] of 27%.
